# Experimental data taken from patent publication US20040204486A1, “Anandamide and structurally related lipids as vanilloid receptor modulators” (priority 2000, published 2004).
# Several values for one entry are separate records, joined by “and”; a condition that tells them apart may be missing. Equal values may be shown once.
# How the values were obtained:
# rat hepatic artery = experiment: Recording of tension: relaxation of isolated rat hepatic artery contracted with phenylephrine
# rat mesenteric artery = experiment: Recording of tension: relaxation of isolated rat mesenteric artery contracted with phenylephrine
# [1] = test system: guinea pig basilar artery; experiment: Recording of tension: relaxation of isolated guinea pig basilar artery contracted with prostaglandin F2α
# Experimental: Recording of tension. Experiments were performed on hepatic (400 μm outer diameter) and mesenteric (200 μm outer diameter) arteries from female Wistar-Hannover rats (200-250 g) and on basilar arteries (300 μm outer diameter) from male guinea pigs. Briefly, the arteries were cut into ring segments and mounted in tissue baths containing aerated physiological salt solution (5% CO2 and 95% O2; 37° C.; pH 7.4) as previously described (refs. 38, 43). All experiments were performed in the presence of N^G-nitro-L-arginine (0.3 mM) and indomethacin (10 μM) to eliminate any contribution of nitric oxide and cyclooxygenase products, respectively (refs. 38, 23). Relaxant responses were studied in preparations contracted with phenylephrine (rat hepatic and mesenteric arteries) and prostaglandin F2α (guinea pig basilar artery) (refs. 38, 43). When stable contractions were obtained, agonists were added cumulatively to determine concentration-response relationships.
# Some preparations were pre-treated with capsaicin for 1 hour followed by washout for 20 minutes. Each vessel segment was exposed to only one treatment. The experiments were carried out with the approval of the local ethics committee.
# Calculations and statistics. Relaxations are expressed as percentage reversal of the prevailing contraction (100% indicates a complete reversal to basal tension). […] Data are presented as means±s.e.mean (vertical lines in figures), and n indicates the number of vascular segments (animals) examined. pA2 and slope values of the Shild plots were estimated according to the Jackknife method (ref. 46). Statistical analysis was performed by using Student's t-test (two-tailed), Mann-Whitney U-test, or analysis of variance (ANOVA) on log transformed values (cyclic AMP) followed by Bonferroni Dunn's post hoc test (Statview 4.12). Statistical significance was accepted when P<0.05.
# cyclic AMP content = experiment: Measurement of cyclic AMP content in rat hepatic artery segments
# Experimental: Measurement of CGRP and cyclic AMP. Segments of rat hepatic arteries were equilibrated for 1 hour in aerated physiological salt solution (5% CO2 and 95% O2; 37° C.; pH 7.4) containing N^G-nitro-L-arginine (0.3 mM) and indomethacin (10 μM).
# Cyclic AMP: The amount of cyclic AMP after 5 min exposure to the test drugs was determined as previously described (ref. 44).
# [2] = in presence of capsazepine (3 μM)
substance,measurement,setting,value
"CGRP: calcitonin gene-related peptide, vasodilator peptide",pEC50 of relaxation,rat hepatic artery; after pre-treatment with capsaicin (10 μM),9.51±0.02
same,pEC50 of relaxation,rat hepatic artery; control (agonist alone),9.56±0.04 and 9.46±0.01
same,pEC50 of relaxation,rat hepatic artery; in presence of 8-37 CGRP (2 μM),8.54±0.13
same,pEC50 of relaxation,rat hepatic artery; [2],9.39±0.04
same,Emax of relaxation,rat mesenteric artery; control (agonist alone),99±1%
same,Emax of relaxation,rat mesenteric artery; [2],99±1%
same,Emax of relaxation,[1]; control (agonist alone),98±1%
same,pEC50 of relaxation,[1]; control (agonist alone),8.72±0.16
same,Emax of relaxation,[1]; [2],99±1%
same,pEC50 of relaxation,[1]; [2],8.70±0.15
same,tissue content of cyclic AMP,"cyclic AMP content; anandamide 10 μM or CGRP 10 nM, 5 minutes",increased
same,tissue content of cyclic AMP after capsaicin pre-treatment,cyclic AMP content; segments pre-treated with capsaicin (10 μM),resistant to capsaicin
